# Measured values taken from PMC7587356, “High-Throughput Screening for Inhibitors of the SARS-CoV-2 Protease Using a FRET-Biosensor” (Molecules, 2020).
# Like-named read-outs stand apart in the source and are kept apart here.
# Assays:
# SARS-CoV-2 3CLpro [1] = biological target: T1, SARS-CoV-2 3CLpro (Severe acute respiratory syndrome coronavirus 2, UniProt P0DTD1); assay: biochemical
# SARS-CoV-2 3CLpro [2] = biological target: T1, SARS-CoV-2 3CLpro; assay: biochemical; conditions: 4 h
# SARS-CoV-2 3CLpro [3] = biological target: T1, SARS-CoV-2 3CLpro
# [4] = read-out: Replicate_1 (LOPAC_screen_w_protease)
# [5] = read-out: Replicate_2 (LOPAC_screen_w_protease)
Structure (SMILES),Ratio (A/B) (SARS-CoV-2 3CLpro [1]),"EC50 (SARS-CoV-2 3CLpro [1]; with 0.01% Triton X-100; mean ± SD of triplicate; 4 h, 30 °C; read-out: A) EC50 with Triton X-100) [nM]","EC50 (SARS-CoV-2 3CLpro [1]; without Triton X-100; mean ± SD of triplicate; 4 h, 30 °C; read-out: B) EC50 without Triton X-100) [nM]",inhibition at 5 µM (SARS-CoV-2 3CLpro [2]; [4]) [%],inhibition at 5 µM (SARS-CoV-2 3CLpro [2]; [5]) [%],mean (LOPAC_screen_w_protease) (SARS-CoV-2 3CLpro [3])
NC(CO)C(=O)NNCc1ccc(O)c(O)c1O (stereo not drawn) [Benserazide],1.8,2110 ± 303,1190 ± 202,–,–,–
Cn1c(=O)c2[nH]cnc2n(C)c1=O [Theophylline],–,–,–,2.3,1.23,1.763
C[C@]12C=CC(=O)C=C1CC[C@H]1[C@@H]3C[C@@H](O)[C@](O)(C(=O)CO)[C@@]3(C)C[C@H](O)[C@@]12F [Triamcinolone],–,–,–,2.32,1.84,2.083
